{"source": "patent US6727276B2", "about": "“Epothilone derivatives for the treatment of refractory tumors” (Bristol-Myers Squibb Company, priority 2001, dated 2004)", "key": {"HCT116/VM46 cells": {"system": "HCT116/VM46 cells", "assay": "Cytotoxicity assay, multi-drug resistant colon tumor line", "format": "cell-based, human", "conditions": "resistant cell line vs. sensitive HCT 116 cell line"}, "[1]": {"system": "A2780Tax ovarian carcinoma xenograft (mutated tubulin)", "assay": "In vivo antitumor testing, A2780Tax xenograft", "set-up": "species or system nude mice", "conditions": "BMS-310705; IV, q4dx3; Expt. 13"}, "Pat-21 breast carcinoma": {"system": "Pat-21 breast carcinoma", "assay": "In vivo antitumor testing, Pat-21 xenograft", "set-up": "species or system nude mice", "conditions": "BMS-310705; IV, q4dx3;37,66; Expt. 717"}, "[2]": {"system": "five human tumor xenografts resistant to paclitaxel", "assay": "Antitumor activity in panel of five paclitaxel-resistant human tumor xenografts", "conditions": "parenteral administration, five tumor models"}}}
{"compound": "C/C(=C\\c1csc(CN)n1)[C@@H]1C[C@@H]2O[C@]2(C)CCC[C@H](C)[C@H](O)[C@@H](C)C(=O)C(C)(C)[C@@H](O)CC(=O)O1", "note": "(relative stereo) [BMS-310705, [1S-[1R*,3R*(E),7R*,10S*,11R*,12R*,16S*]]-7,11-dihydroxy-8,8,10,12,16-pentamethyl-3-[1-methyl-2-(2-aminomethyl-4-thiazolyl)ethenyl]-4,17-dioxabicyclo[14.1.0]heptadecane-5,9-dione]", "values": [{"measurement": "ratio of concentration (R/S or resistance ratio) to inhibit cell growth by 50%", "setting": "HCT116/VM46 cells", "value": 12.8, "unit": "fold"}, {"measurement": "OD (optimal dose or maximum tolerated dose)", "setting": "[1]", "value": 10, "unit": "mg/kg"}, {"measurement": "OD (optimal dose or maximum tolerated dose)", "setting": "Pat-21 breast carcinoma", "value": 9, "unit": "mg/kg"}, {"measurement": "antitumor activity in paclitaxel-resistant tumors (in words)", "setting": "[2]; listed as subject compound", "value": "significantly more active than paclitaxel"}, {"measurement": "antitumor activity in paclitaxel-resistant tumors (in words)", "setting": "[2]; listed as test compound", "value": "clearly demonstrated antitumor activity in all five paclitaxel-resistant tumors"}]}
